This passage reports LD50 results from patent US4522839A, “3-Substituted 2,4,6-trihalogenated benzamides as sweetening agents” (Schering Aktiengesellschaft, priority 1980, dated 1985).

The nature of this data set: in vivo. The settings on record: mouse, ip.

Take `O=C1NS(=O)(=O)c2ccccc21.[Na]` [Sodium Saccharin]: the LD50 (commonly the dose expected to kill half of the subjects tested) was ~6000 mg/kg.
